The list shows a part of the results, in another mix than the full data. Inconclusive results are not listed. Activity calls are given as the source filed them. Calls follow the shape of the dose curve; as a rule, active = well fitted inhibition curve with a large enough effect; inconclusive = small, poorly fitted or top-dose-only effect, or effect the other way; inactive = no such curve, though single readings can be large or run the other way.
Molecular target: Runt-related transcription factor 1 (Homo sapiens) + Core-binding factor subunit beta (Homo sapiens) (UniProt Q01196+Q13951)
Experiment: qHTS Assay for Compounds Blocking the Interaction Between CBF-beta and RUNX1 for the Treatment of Acute Myeloid Leukemia: Hit Validation with Orthogonal Assay
Settings: CBFbeta-RUNX1 binding orthogonal assay, biochemical; at 41 µM (top of the series)
% is scaled to controls: 0 for no effect and ±100 for the full control effect.

By UniProt entry, the sequences of proteins in these tests, tags left out.
UniProt Q01196, whole entry, looked up: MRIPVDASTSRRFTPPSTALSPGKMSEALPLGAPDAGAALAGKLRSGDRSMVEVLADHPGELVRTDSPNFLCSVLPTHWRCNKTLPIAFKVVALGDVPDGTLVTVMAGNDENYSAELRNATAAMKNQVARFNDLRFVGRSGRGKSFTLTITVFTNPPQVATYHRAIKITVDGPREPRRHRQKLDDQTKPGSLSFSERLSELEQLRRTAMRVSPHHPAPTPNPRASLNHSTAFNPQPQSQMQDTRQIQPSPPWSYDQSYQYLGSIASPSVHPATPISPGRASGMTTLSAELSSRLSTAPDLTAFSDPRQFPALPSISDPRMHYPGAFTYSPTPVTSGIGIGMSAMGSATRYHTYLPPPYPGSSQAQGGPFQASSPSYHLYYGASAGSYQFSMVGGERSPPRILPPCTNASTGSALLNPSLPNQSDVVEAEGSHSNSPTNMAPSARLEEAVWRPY
UniProt Q13951, whole entry, looked up: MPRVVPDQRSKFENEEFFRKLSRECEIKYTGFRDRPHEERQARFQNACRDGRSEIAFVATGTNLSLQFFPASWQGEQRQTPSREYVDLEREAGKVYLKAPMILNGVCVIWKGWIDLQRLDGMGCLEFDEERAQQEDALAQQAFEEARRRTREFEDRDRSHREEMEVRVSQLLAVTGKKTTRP

| Structure (SMILES) | activity change, negative = inhibition |
| --- | --- |
| O=[As](O)(c1ccccc1)c1ccc(O)cc1 | inactive: 5.16% |
| O=P(Nc1nc2ccc(Cl)cc2s1)(c1ccccc1)c1ccccc1 | inactive: 2.89% |
| O=[As](O)(c1ccc(O)cc1)c1ccccc1O | inactive: 21.7% |
| COc1cc(I)ccc1[As](=O)(O)O | inactive: 3.28% |
| CCOC(=O)Nc1ccc([As](=O)(O)O)c(O)c1 | inactive: -5.33% |
| Nc1cccc([As](=O)(O)c2ccccc2)c1 | inactive: -4.82% |
| O=[As](O)(O)c1cccnc1 | inactive: 19.9% |
| Nc1ccccc1[As](=O)(O)c1ccccc1 | inactive: 7.63% |

Reference: PubChem BioAssay AID504375 (National Center for Advancing Translational Sciences (NCATS), 2011)
